From patent publication US7067658B2, “Pyridino and pyrimidino pyrazinones” (Bristol-Myers Squibb Company, priority 2002, dated 2006)
pIC50: −log10 of the molar value. Where two headings read alike, the source gives them in different places.

The chains behind the UniProt entries cited, without tags or fusion partners. Residues count along the entry.
UniProt P34998, 24-415 limits assumed: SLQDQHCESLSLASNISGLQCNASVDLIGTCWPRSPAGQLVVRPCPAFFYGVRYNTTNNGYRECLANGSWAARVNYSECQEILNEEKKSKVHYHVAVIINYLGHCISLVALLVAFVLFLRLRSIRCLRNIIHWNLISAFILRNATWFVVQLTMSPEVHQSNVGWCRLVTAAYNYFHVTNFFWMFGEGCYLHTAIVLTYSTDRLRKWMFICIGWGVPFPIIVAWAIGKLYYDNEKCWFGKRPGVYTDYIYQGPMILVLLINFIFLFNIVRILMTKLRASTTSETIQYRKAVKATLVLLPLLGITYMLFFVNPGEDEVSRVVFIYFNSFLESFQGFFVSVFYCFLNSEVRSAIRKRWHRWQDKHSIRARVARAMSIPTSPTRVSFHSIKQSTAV

Target: cloned human CRF1 receptors (Homo sapiens, UniProt P34998)
Experiment: CRF1 receptor binding assay (inhibition of 125I-ovine-CRF binding to membranes of 293EBNA cells transfected with hCRFR1)
[1] = read-out: IC50 Range* (potency of binding to CRF1 receptor), IC50 ranges, class symbols a-e
[2] = read-out: IC50 Range* (potency of binding to CRF1 receptor), IC50 ranges as class symbols a-e
[3] = read-out: IC50 Range (potency of binding to CRF1 receptor), IC50 ranges as class symbols a-e

Row | SMILES | pIC50 [1] | further results
1 | COc1ccc(-c2ncnc3c2nc(C)c(=O)n3C(C)C2CC2)c(Cl)c1 (stereo not drawn) | 7.00 to 8.00 | –
2 | CCCC(CCC)n1c(=O)c(C)nc2c(-c3ccc(Cl)cc3Cl)ncnc21 | 6.00 to 7.00 | –
3 | CCC(C1CC1)n1c(=O)c(C)nc2c(-c3ccc(OC)nc3C)ncnc21 (stereo not drawn) | 6.00 to 7.00 | –
4 | CCC(C1CC1)n1c(=O)c(C)nc2c(-c3ccc(OC(F)(F)F)cc3Cl)ccnc21 (stereo not drawn) | – | pIC50 [2]: 7.00 to 8.00
5 | CCC(COC)n1c(=O)c(C)nc2c(-c3ccc(OC)cc3C)ccnc21 (stereo not drawn) | 7.00 to 8.00 | –
6 | CCCC(C)n1c(=O)c(C)nc2c(-c3cc(C)c(OC)cc3C)ccnc21 (stereo not drawn) | – | pIC50 [2]: 7.00 to 8.00
7 | CCC(C1CC1)n1c(=O)c(C)nc2c(-c3ccc(C(F)(F)F)cc3Cl)ccnc21 (stereo not drawn) | 7.00 to 8.00 | –
8 | Cc1nc2c(-c3ccc(Cl)cc3Cl)ncnc2n(C(C2CC2)C2CC2)c1=O | – | pIC50 [3]: 7.00 to 8.00
9 | CCC(C1CC1)n1c(=O)c(C)nc2c(-c3ccc(OC(F)F)cc3Cl)ccnc21 (stereo not drawn) | 8.00 to 9.00 | –
10 | CCCC(C)n1c(=O)c(C)nc2c(-c3ccc(OC(F)(F)F)cc3Cl)ccnc21 (stereo not drawn) | – | pIC50 [2]: 6.00 to 7.00
11 | CCC(C1CC1)n1c(=O)c(C)nc2c(-c3cc(F)c(OC)cc3C)ccnc21 (stereo not drawn) | 8.00 to 9.00 | –
12 | COc1ccc(-c2ccnc3c2nc(C)c(=O)n3C(C2CC2)C2CC2)c(C)c1 | 8.00 to 9.00 | –
13 | COCC(C)n1c(=O)c(C)nc2c(-c3ccc(OC)cc3Cl)ncnc21 (stereo not drawn) | 6.00 to 7.00 | –
14 | COc1ccc(-c2ccnc3c2nc(C)c(=O)n3C(C)C2CCC2)c(Cl)c1 (stereo not drawn) | 8.00 to 9.00 | –
15 | COCC(C)n1c(=O)c(C)nc2c(-c3ccc(Cl)cc3Cl)ncnc21 (stereo not drawn) | 6.00 to 7.00 | –
16 | COCC(C)n1c(=O)c(C)nc2c(-c3ccc(OC)cc3C)ccnc21 (stereo not drawn) | 6.00 to 7.00 | –
17 | COCC(C)n1c(=O)c(C)nc2c(-c3ccc(C(F)(F)F)cc3Cl)ccnc21 (stereo not drawn) | 7.00 to 8.00 | –
18 | COCC(C)n1c(=O)c(C)nc2c(-c3ccc(OC(F)(F)F)cc3Cl)ncnc21 (stereo not drawn) | – | pIC50 [3]: 7.00 to 8.00
19 | CCC(C1CC1)n1c(=O)c(C)nc2c(-c3ccc(Cl)cc3Cl)ccnc21 (stereo not drawn) | 8.00 to 9.00 | –
20 | COCC(C)n1c(=O)c(C)nc2c(-c3ccc(OC)nc3C)ccnc21 (stereo not drawn) | 6.00 to 7.00 | –

Row | SMILES | pIC50 [1] | further results
21 | CCC(C1CC1)n1c(=O)c(C)nc2c(-c3ccc(OC)cc3Cl)ncnc21 (stereo not drawn) | 7.00 to 8.00 | –
22 | CCC(C1CCC1)n1c(=O)c(C)nc2c(-c3ccc(OC)cc3C)ccnc21 (stereo not drawn) | 7.00 to 8.00 | –
23 | CCC(COC)n1c(=O)c(C)nc2c(-c3ccc(OC)nc3C)ncnc21 (stereo not drawn) | < 6.00 | –
24 | CCCC(CCC)n1c(=O)c(C)nc2c(-c3ccc(OC)nc3C)ccnc21 | 7.00 to 8.00 | –
25 | CCC(COC)n1c(=O)c(C)nc2c(-c3ccc(C(F)(F)F)cc3Cl)ccnc21 (stereo not drawn) | 7.00 to 8.00 | –
26 | CCC(C1CC1)n1c(=O)c(C)nc2c(-c3cc(C)c(OC)cc3C)ncnc21 (stereo not drawn) | – | pIC50 [3]: 7.00 to 8.00
27 | Cc1nc2c(-c3cc(F)c(N(C)C)cc3Cl)ccnc2n(C(C)C2CC2)c1=O (stereo not drawn) | – | pIC50 [2]: 8.00 to 9.00
28 | COCC(C)n1c(=O)c(C)nc2c(-c3ccc(OC(F)F)cc3Cl)ccnc21 (stereo not drawn) | 7.00 to 8.00 | –
29 | CCC(C1CC1)n1c(=O)c(C)nc2c(-c3ccc(OC)cc3Cl)ccnc21 (stereo not drawn) | > 9.00 | –
30 | COCC(C)n1c(=O)c(C)nc2c(-c3ccc(OC(F)(F)F)cc3Cl)ccnc21 (stereo not drawn) | – | pIC50 [2]: 6.00 to 7.00
31 | CCC(C1CCC1)n1c(=O)c(C)nc2c(-c3ccc(Cl)cc3Cl)ncnc21 (stereo not drawn) | 7.00 to 8.00 | –
32 | CCC(C1CC1)n1c(=O)c(C)nc2c(-c3ccc(OC)nc3C)ccnc21 (stereo not drawn) | 7.00 to 8.00 | –
33 | CCC(COC)n1c(=O)c(C)nc2c(-c3cc(F)c(OC)cc3C)ccnc21 (stereo not drawn) | 8.00 to 9.00 | –
34 | COCC(C)n1c(=O)c(C)nc2c(-c3cnc(OC)nc3OC)ccnc21 (stereo not drawn) | – | pIC50 [2]: < 6.00
35 | CCC(COC)n1c(=O)c(C)nc2c(-c3ccc(OC)cc3Cl)ccnc21 (stereo not drawn) | 7.00 to 8.00 | –
36 | CCC(C1CC1)n1c(=O)c(C)nc2c(-c3ccc(OC)cc3C)ccnc21 (stereo not drawn) | 7.00 to 8.00 | –
37 | CCC(COC)n1c(=O)c(C)nc2c(-c3ccc(OC(F)F)cc3Cl)ccnc21 (stereo not drawn) | 8.00 to 9.00 | –
38 | CCC(C1CC1)n1c(=O)c(C)nc2c(-c3ccc(Cl)cc3Cl)ncnc21 (stereo not drawn) | 7.00 to 8.00 | –
39 | CCC(C1CC1)n1c(=O)c(C)nc2c(-c3cnc(OC)nc3OC)ccnc21 (stereo not drawn) | – | pIC50 [2]: < 6.00
